Assay results published in patent publication US20060240535A1, “Carbonyl reductase from lactococcus lactis” (GEORGIA TECH RESEARCH CORPORATION, priority 2004, published 2006).

Test system: carbonyl reductase from Lactococcus lactis
Assay: CRLL activity assay (decrease of NADPH absorption); substrate table of the isolated carbonyl reductase
Type: biochemical
Conditions: Substrate (20 mM)
From the text: The construct crll-pkk223-3 as well as crll-his-pkk223-3 were both transformed separately into the E. coli host strain HB101 for expression.

## O=C1CCc2ccccc21 [1-indanone]
  Activity (U/mL): 0 U/mL
